From ChEMBL document CHEMBL5214989, “Overcoming Preclinical Safety Obstacles to Discover (S)-N-((1,2,3,5,6,7-Hexahydro-s-indacen-4-yl)carbamoyl)-6-(methylamino)-6,7-dihydro-5H-pyrazolo[5,1-b][1,3]oxazine-3-sulfonamide (GDC-2394): A Potent and Selective NLRP3 Inhibitor” (J Med Chem, 2022)
Active and inactive are the calls of the source. The calls are words filed in the database; no cut-off is given here.

Test system: Rattus norvegicus
Test: Anti-allodynic activity in MSU-induced Wistar rat gouty arthritis model assessed as mechanical allodynia at 0.5 mg/kg, iv administered once daily for 7 days and measured on day 2
Type: functional, organism-based
Conditions: time 7.0 day

Which Activity does the source give for `COc1cc2c(c(OC)c1OC)-c1ccc(OC)c(=O)cc1[C@@H](NC(C)=O)CC2` here?
The Activity was “Active”.
